Values quoted from earlier work, collected in patent US12240813B2, “Deuterated tryptamine derivatives and methods of use” (priority 2020, dated 2025).

Protein sequences, listed by entry. Tags and fused reporters are not part of them.
UniProt P41595, whole entry: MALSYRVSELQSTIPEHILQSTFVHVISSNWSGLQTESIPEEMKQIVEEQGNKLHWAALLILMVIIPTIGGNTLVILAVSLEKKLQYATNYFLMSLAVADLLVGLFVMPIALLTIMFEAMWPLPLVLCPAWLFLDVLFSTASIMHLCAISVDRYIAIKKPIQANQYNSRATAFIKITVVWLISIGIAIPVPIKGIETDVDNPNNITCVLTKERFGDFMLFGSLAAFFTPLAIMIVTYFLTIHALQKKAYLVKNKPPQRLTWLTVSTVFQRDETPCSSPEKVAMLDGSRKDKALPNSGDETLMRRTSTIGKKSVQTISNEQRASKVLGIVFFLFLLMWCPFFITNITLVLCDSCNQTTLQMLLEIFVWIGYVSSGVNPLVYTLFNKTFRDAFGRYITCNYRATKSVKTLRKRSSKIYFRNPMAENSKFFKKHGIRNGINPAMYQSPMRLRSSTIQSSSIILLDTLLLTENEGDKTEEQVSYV

Target: T1, 5-HT2B receptor (Homo sapiens, UniProt P41595)
T1 construct: expressed in transfected cells; host or cells: CHO-K1 or HEK293
Conditions: agonist-labeled, PI data PDSP certified or from literature; cited from earlier work

For `CN(C)CCc1c[nH]c2cccc(O)c12` [PI, psilocin], the Ki is given as 5 nM.
